The list shows a part of the results, in another mix than the full data. Results filed as inconclusive are left out. A call without a number means that no potency is given here. Activity calls are given as the source filed them. Calls come from the whole dose curve.
Potency is the fitted concentration of half-maximal effect.

A short description of the experiment: qHTS assay to identify small molecule agonists of H2AX - cell viability counter screen (AID 1224847). For activity change, negative = cytotoxicity: top concentration of the series differs between compounds. Note: nearly all actives have a fitted effect of over 30% in size. The following applies: CHO-K1 viability, CellTiter-Glo luminescence, 3 h; series mostly up to 154 µM. From the text:
National Center for Advancing Translational Sciences [NCATS]
NIH Chemical Genomics Center [NCGC]
U.S. Environmental Protection Agency [EPA]
National Institutes of Environmental Health Sciences [NIEHS]
National Toxicology Program [NTP]
U.S. Food and Drug Administration [FDA]
HTRF phospho-H2AX (Ser139) assay (Cisbio Bioassays, US) enables the quantitative detection of the histone variant H2AX when phosphorylated on serine 139. When double-stranded DNA breaks, either by ionizing radiation or endogenous physiological processes, H2AX becomes phosphorylated at Ser139. This phospho-Ser139 serves as a sensitive biomarker for the detection of such breaks, localizing the site of DNA repair. So, HTRF phospho-H2AX Ser139 is a pertinent assay to study genome stability, the cell cycle, DNA repair, and it serves as a biomarker for cancer, and to understand aging. Wild type CHO-K1 cells were used to identify the inducers of Phospho-H2AX Ser 139 from the Tox21 compound collections. Also cytotoxicity of the Tox21 10K compound library against the CHO-K1 cell line was tested by measuring the cell viability using CellTiter-Glo assay (Promega, Madison, WI).
Tox21 Assay Protocol Summary:
The CHO-K1 cells suspended in culture medium containing 10% FBS were dispensed at 1000 cells/ 3 ul/well in 1536-well white wall/solid bottom plates (Greiner Bio-One North America, NC) using a Multidrop Combi (Thermo Fisher Scientific Inc., Waltham, MA). After the assay plates were incubated at 37C overnight, 23 nl of compounds at 15 concentrations (from 5-48 columns) or positive control (from 1 to 4 columns) were transferred to the assay plates using a Pintool station (Wako, San Diego, CA) into each well resulting in a final DMSO concentration of 0.76%. After 3hr incubation at 37C, 3 uL/well CellTiter-Glo luminescent cell viability reagent (Promega Corporation, Madison, WI) was added using a Flying Reagent Dispenser (FRD) (Aurora Discovery, CA). After incubation at room temperature for 30 min, the luminescence intensity was read using a ViewLux plate reader (PerkinElmer, Waltham, MA).
Background: Quantitative high-throughput screening tests each substance at several concentrations.
`CN(C(=O)Cc1ccc(Cl)c(Cl)c1)[C@H]1CC[C@@]2(CCCO2)C[C@@H]1N1CCCC1`: the Potency result was “inactive”.

In the case of `O=C(Cl)OCCOC(=O)Cl`, the Potency result is “inactive”.

With `Cc1cc([N+](=O)[O-])c(O)c([N+](=O)[O-])c1`, the Potency entry was “inactive”.

For the compound `CCC(C)(OOC(C)(C)C)OOC(C)(C)C`, the activity change, negative = cytotoxicity was inactive: 3.2% [at 31.6 µM].

Regarding `O=[N+]([O-])c1ccc(S(=O)(=O)O)c([N+](=O)[O-])c1`, the Potency entry is “inactive”.

Take `N#CSc1ccc([N+](=O)[O-])cc1[N+](=O)[O-]`: the Potency was active: 45 µM.

For the compound `CCCCC(CC)CO[P+](=O)OCC(CC)CCCC` (centres undefined), the Potency entry is “inactive”.

On to `ClP(Cl)c1ccccc1`, for which the Potency result was “inactive”.

For `CN(N=O)C(=N)N[N+](=O)[O-]`, the Potency entry is “inactive”.

With `O=C(Cl)Oc1ccccc1`, the Potency result was “inactive”.

As to `CCOC(=O)Cl`, the Potency result is “inactive”.

Consider `CCNC(C)Cc1ccc2c(c1)OCO2` (centres undefined), for which the Potency entry is “inactive”.

As to `CCOP(=S)(CC)Sc1ccccc1` (centres undefined), the Potency entry was “inactive”.

For the compound `CN(C(=O)Cc1cccc2occc12)[C@H]1CC[C@@]2(CCCO2)C[C@@H]1N1CCCC1`, the Potency entry was “inactive”.

Consider `O=[p+]1oc2ccccc2c2ccccc21` (centres undefined), for which the Potency result was “inactive”.

Regarding `O=[P+](Oc1ccccc1)Oc1ccccc1`, the Potency result is “inactive”.

`O=[As]c1ccccc1` (centres undefined): the Potency was active: 12.7 µM.

For `COC(=O)Cl`, the Potency result is “inactive”.

For `CN(C(=O)Cc1ccccc1)[C@H]1CC[C@@]2(CCCO2)C[C@@H]1N1CCCC1`, the Potency entry is “inactive”.

As for `CCCCO[P+](=O)OCCCC`, the Potency result was “inactive”.

Turning to `O=P(Cl)(Oc1ccccc1)Oc1ccccc1`, the Potency entry was “inactive”.

Consider `COP(=S)(Cl)OC`, for which the Potency entry is “inactive”.

Regarding `O=P(Cl)(Cl)c1ccccc1`, the Potency result is “inactive”.

As for `CCCCOP(OCCCC)OCCCC`, the Potency entry is “inactive”.

The values are drawn from PubChem BioAssay (Tox21).
